Experimental data published in patent EP3398599A1, “COMPOSITIONS AND METHODS FOR PROPHYLAXIS AND TREATMENT OF ADDICTIONS” (priority 2009, dated 2010).

What was measured:
[1] = system: human patients; assay: Observational study of alcohol abuse in human patients (pioglitazone 30 mg/day or naltrexone 50 mg/day + psychotherapy); assay type: in vivo
[2] = Young, Buckle et al. 1998; Breidert, Callebert et al. 2002; cited from earlier work
[3] = system: heavy tobacco smokers; assay: Pilot study in heavy tobacco smokers (pioglitazone 15-30 mg/daily, varenicline 0.5 to 2.0 mg/day, bupropione); assay type: in vivo, human

With `O=C1CC[C@@]2(O)[C@H]3Cc4ccc(O)c5c4[C@@]2(CCN3CC2CC2)[C@H]1O5` [naltrexone] the “Obsessive compulsive drinking scale (OCDS) (mean score values)” value (shortened to “Obsessive compulsive drinking scale”) ([1]; T=0 (beginning of the treatment)) was 49, the “Obsessive compulsive drinking scale” value ([1]; T=1.1 (month 1, week 1)) was 47 and the “Obsessive compulsive drinking scale” value ([1]; T=1.2 (month 1, week 2)) was 45.
For `CCc1ccc(CCOc2ccc(CC3SC(=O)NC3=O)cc2)nc1` (stereo not shown) [pioglitazone], the “crossing of the blood brain barrier, compared with rosiglitazone” value [2] is given as “crosses the blood brain barrier more easily”, the “Percent inhibition of smoking” value ([3]; Patient 1, T=2 weeks of treatment) is given as 27% and the “Percent inhibition of smoking” value ([3]; Patient 1, T=4 weeks of treatment) is given as 49%. For the same molecule, the “Percent inhibition of smoking” value ([3]; Patient 1, T=6 weeks of treatment) was 57%, the “Percent inhibition of smoking” value ([3]; Patient 1, T=8 weeks of treatment) was 72% and the “Percent inhibition of smoking” value ([3]; Patient 2, T=2 weeks of treatment) was 24%. The “Percent inhibition of smoking” value ([3]; Patient 2, T=4 weeks of treatment) was 39%, the “Percent inhibition of smoking” value ([3]; Patient 2, T=6 weeks of treatment) was 46% and the “Percent inhibition of smoking” value ([3]; Patient 2, T=8 weeks of treatment) was 68%. For the same molecule, the “Percent inhibition of smoking” value ([3]; Patient 2, T=10 weeks of treatment) was 75%, the “Percent inhibition of smoking” value ([3]; Patient 3, T=2 weeks of treatment) was 25% and the “Percent inhibition of smoking” value ([3]; Patient 3, T=4 weeks of treatment) was 44%. For the same molecule, the “Percent inhibition of smoking” value ([3]; Patient 3, T=6 weeks of treatment) was 66%, the “Percent inhibition of smoking” value ([3]; Patient 3, T=8 weeks of treatment) was 84% and the “Percent inhibition of smoking” value ([3]; Patient 4, T=2 weeks of treatment) was 23%. For the same molecule, the “Percent inhibition of smoking” value ([3]; Patient 4, T=4 weeks of treatment) was 41%, the “Percent inhibition of smoking” value ([3]; Patient 4, T=6 weeks of treatment) was 53% and the “Percent inhibition of smoking” value ([3]; Patient 4, T=8 weeks of treatment) was 67%. For the same molecule, the reduction of smoking ([3]; one (the fourth) pioglitazone patient) was 75%.
